According to US11505576B2, “Polypeptides based on a scaffold” (AFFIBODY AB, priority 2018, dated 2022):

Test: Circular dichroism spectroscopy analysis (CD spectra, variable temperature measurement, refolding)
Assay type: physicochemical
Settings: Table 3, mutation study 1; MGSSHHHHHHGSS-[Y#####]
Procedure: The respective Y variant was diluted to 0.5 mg/ml in PBS. A CD spectrum at 250-195 nm was obtained at 20° C. In addition, a variable temperature measurement (VTM) was performed to determine the melting temperature (Tm). In the VTM, absorbance was measured at 221 nm while the temperature was raised from 20° C. to 90° C. with a temperature gradient of 5° C./min. A new CD spectrum was obtained at 20° C. after the heating procedure, in order to study the refolding ability of the Y variants. The CD measurements were performed on a Jasco J-810 spectropolarimeter (Jasco Scandinavia AB) using a cell with an optical path length of 1 mm.
Produced Y variants were subjected to CD and SPR analyses according to the methods described in Example 1.
The Y variants were cloned, produced and characterized according to the general methods described in Example 1. […]
Produced Y variants were subjected to CD and SPR analyses according to the methods described in Example 1. In addition, CD spectra of selected IL-6 binding variants were also recorded at 60, 70, 80 and 90° C.
The Y variants were cloned, produced and characterized according to the general methods described in Example 1. […] In addition, CD spectra of the IL-6 binding variants were also recorded at 60, 70, 80 and 90° C.

Y00273: insulin binding Y variant, Y00032 with E32Q, SEQ ID NO:120 (LAEAKEAAIAELDSKGVGAYQKSFIELAKSVQHVELLKEAILADLP; Engineered insulin binding Y variant)
Tm: 46 °C
